# Source: PubChem
# Nrf2 ARE act – activators of Nrf2 (ARE) signaling; hit rate 0.31% among 410,000; AREc32 ARE-luciferase reporter (MCF7-derived line), luminescence, 24 h; AID 624171; Potency, µM (highest dose often 46.1 µM), for the others: top-dose activation, actives largely listed as activators; further: potency means the concentration at half of the fitted maximal effect; % of control where 0% means no effect; nearly all actives have a fitted effect of over 65% in size
#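 AREc32_Fluc, 1000 cells/well, OPTI-MEM + 5% FBS, o/n 37 deg C 5% CO2; 23 nL cpd by pin tool, 24 hr; Steady-Glo 30 min RT, luminescence.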
# p53 reactivation – re-activators of mutant p53; H1299 p53-A138V BP100-luciferase reporter, luminescence, 24 h; Potency, µM (titrated, usually from 92.2 µM), without a hit: at the top dose activity change, positive = activation, actives largely listed as activators; AID 504706; hit rate 0.063% among 320,000; further: potency means the concentration at half of the fitted maximal effect; % of control where 0% means no effect; nearly all actives have a fitted effect of over 45% in size
#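 H1299 (p53-null), stable ts p53-A138V + BP100-Luc; 1000 cells/well, Opti-MEM/10% FBS; cpd 4 pt, 1:5; 24 h, 37 deg C, 5% CO2; detection reagent 10 min RT; luminescence.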
# Nrf2 inh – inhibitors of Nrf2 signaling | A549 ARE-Fluc reporter, luciferase luminescence, 18-24 h | Potency, µM (doses to about 46 µM), for inactives: at the top dose activity change, negative = inhibition, usual class: inhibitors | hit rate 2.1% among 360,000; further: potency means the concentration at half of the fitted maximal effect; on the % scale 0 is the no-effect control and ±100 the full control effect; nearly all actives have a fitted effect of over 60% in size
#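 Quantitative HTS in A549 cells stably bearing an antioxidant response element-firefly luciferase construct. Inhibition of Nrf2-driven transcription was scored by luminescence after 18-24 h of compound exposure at 37 °C.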
# A549 tox – A549 cytotoxicity, counter-screen for Nrf2 inhibitors | A549 ARE-Fluc cells, CellTiter-Fluor viability, 18-24 h | hit rate 0.16% among 390,000 | Potency, µM (doses to about 46 µM), for inactives: top-dose activity change, negative = cytotoxicity, actives largely listed as inhibitors | AID 504648; further: potency means the concentration at half of the fitted maximal effect; on the % scale 0 is the no-effect control and ±100 the full control effect
#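 A549 ARE_Fluc cells in 5% FBS OPTI-MEM were exposed to compounds in concentration-response for 18-24 h at 37 deg C. Viability was read by CellTiter-Fluor fluorescence (Ex 405/Em 525) after 30 min, before the luciferase read.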
# ClpP mod – qHTS Assay for Activators of ClpP; purified B. subtilis ClpP, FRET peptide cleavage, 20 min; Potency, µM (doses to about 57.5 µM), for the others: at the highest dose activity change, negative = active; hit rate 1.9% among 340,000; active means well fitted falling curve with a large enough effect; inconclusive means small, poorly fitted or top-dose-only effect; inactive means no such curve, though single readings can be large or run the other way; further: potency means the concentration at half of the fitted maximal effect; the source files actives as falling curves though it sought activators and does not explain the sign; nearly all actives have a fitted effect of over 65% in size
#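 Purified B. subtilis ClpP, 10 microg/mL final in Tris/HCl pH8 with KCl, BSA, glycerol and Tween-20, cleaved an Abz/nitrotyrosine-quenched decapeptide. Fluorescence (ex 320, em 430) was read at 0 and 20 min at room temperature. Delta was normalized to 5.8 microM ADEP and DMSO/no-enzyme controls.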
# miR-21 reporter – raises the signal of a miR-21 reporter | HeLa miR-21 FLuc reporter, luciferase, 48 h | Potency, µM (highest dose often 38.3 µM), without a hit: at the top dose reporter change, positive = more light | 340,000 tested, under 10 active; active = well fitted rising curve with a large enough effect; inconclusive = small, poorly fitted or top-dose-only effect; inactive = no such curve, though single readings can be large or run the other way;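 note: % of control where 0% means no effect; miR-21 action dims this reporter so a rising signal means less miR-21 action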
#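 Compounds were titrated across several concentrations (up to approximately 40 uM) and incubated 48 hours with HeLa miR-21-FLuc reporter cells (miR-21 target sequence downstream of FLuc, endogenous miR-21). Readout was firefly luciferase luminescence after lytic detection reagent.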
# The depositor's hits bear a star; ? = inconclusive; nt = no result given; ! = a repeat was not active; [ ] = another dose, or the depositor's remark. An excerpt weighted towards active compounds, which were near 3.7% of everything screened. Unless noted, the call rests on the fitted dose curve; in most records, active means well fitted curve in the direction sought with a large enough effect; inconclusive means small, poorly fitted or top-dose-only effect, or another doubt; inactive means no such curve, though single readings can be large; an effect the other way counts as inactive or inconclusive.
item | Structure | A549 tox | p53 reactivation | miR-21 reporter
1 | S=C(NC1CC2CCC1C2)N1CCN(c2cccc(Cl)c2)CC1 (stereo not given) | -10% | -3% | 1%
2 | CCc1ccc(-c2cc(C)no2)cc1S(=O)(=O)Nc1ccc(C)cn1 | 3% | 7% | 4%
3 | Cc1cc(-c2ccc(C)c(S(=O)(=O)Nc3ccccn3)c2)on1 | -6% | nt | -1%
4 | CCc1ccc(-c2cc(C)no2)cc1S(=O)(=O)N1CCN(c2ccccn2)CC1 | 8% | -2% | -2%
5 | CCOc1ccc(N(C)S(=O)(=O)c2cc(-c3cc(C)no3)ccc2C)cc1 | -12% | 2% | 29%
6 | COc1ccc(-c2cc(C)no2)cc1S(=O)(=O)N1CCN(c2ccccn2)CC1 | -6% | 4% | -7%
7 | O=[N+]([O-])c1ccc(C=C2c3ccccc3-c3ccccc32)cc1 | nt | nt | nt
8 | CN(C)c1ccc(/C=c2\[nH]c(=O)/c(=C\c3ccc(N(C)C)cc3)[nH]c2=O)cc1 | nt | nt | nt
9 | O=C(Nc1nnc2n1CCS2)c1ccccc1C(F)(F)F | -6% | nt | -2%
10 | CN(C)c1ccc(/C=[N+]2\C(=O)CC(=O)NC2=O)cc1 | nt | nt | nt
11 | CCc1ccc(-c2cc(C)no2)cc1S(=O)(=O)NCCCN1CCN(c2ccccc2)CC1 | -28% | 0% | ?
12 | CCc1ccc(-c2cc(C)no2)cc1S(=O)(=O)NCCN1CCC(C)CC1 | 8% | 8% | -4%
13 | COc1ccc(CN(C2CC2)S(=O)(=O)c2ccccc2Br)cc1 | -1% | 4% | nt
14 | COc1ccc(CN(CCC(C)C)S(=O)(=O)c2ccccc2Br)cc1 | 14% | 3% | nt
15 | COc1ccc(Cl)cc1NC(=O)c1ccc(CN2C(=O)CCn3nc(C)cc32)cc1 | 8% | nt | -11%

item | Nrf2 inh | ClpP mod | Nrf2 ARE act
1 | 16µM* | -1% | 3%
2 | -3% | 32µM*! | 0%
3 | ? | 28µM* | 0%
4 | ? | -12% | 0%
5 | 18µM* | -1% | 0%
6 | 18µM* | ? | 0%
7 | nt | 0% | nt
8 | nt | 2% | nt
9 | nt | -2% | 0%
10 | nt | 1% | nt
11 | 13µM* | -2% | 1%
12 | 0% | 0% | 0%
13 | 16µM* | -2% | 0%
14 | -6% | -5% | 4%
15 | -39% | -5% | 5%

# Some entries already given, reduced to ClpP mod:
nr	compound	ClpP mod
8	CN(C)c1ccc(/C=c2\[nH]c(=O)/c(=C\c3ccc(N(C)C)cc3)[nH]c2=O)cc1	2%
9	O=C(Nc1nnc2n1CCS2)c1ccccc1C(F)(F)F	-2%
10	CN(C)c1ccc(/C=[N+]2\C(=O)CC(=O)NC2=O)cc1	1%
11	CCc1ccc(-c2cc(C)no2)cc1S(=O)(=O)NCCCN1CCN(c2ccccc2)CC1	-2%
12	CCc1ccc(-c2cc(C)no2)cc1S(=O)(=O)NCCN1CCC(C)CC1	0%

# Further results:
item | Structure | A549 tox | p53 reactivation | miR-21 reporter
16 | Cc1ccc(S(=O)(=O)N2C[C@@H]3[C@H]4CC[C@H](C4)[C@@H]3[C@@H](C)[C@@H]2c2cn(Cc3ccccc3)c3ncccc23)cc1 | 0% | -6% | nt
17 | CCc1ccc2occ(CC(=O)Nc3c(C(=O)Nc4ccc(OC)cc4)oc4ccccc34)c2c1 | -7% | nt | -13%
18 | N#Cc1c(Cl)nsc1NC(=O)c1ccccc1 | ? | 17% | 19%
19 | CCn1c(-c2ccccc2Cl)nn(CC(=O)Nc2cc(Cl)ccc2Cl)c1=S | -11% | -6% | 13%
20 | CCn1c(-c2ccccc2Cl)nn(CC(=O)NCCc2ccccc2)c1=S | -8% | -6% | -2%
21 | O=C(Nc1ccccc1C(=O)N/N=C/c1ccco1)c1ccccc1 | 1% | 11% | -7%
22 | O=C(N/N=C\c1ccco1)Nc1cccc(Cl)c1 | -8% | ? | -75%
23 | O=C(Nc1ccccc1C(=O)N/N=C/c1ccco1)c1ccc(F)cc1 | 8% | 18% | -18%
24 | Cc1cccc(NC(=O)CCC(=O)N/N=C/c2ccco2)c1 | 8% | 3% | -9%
25 | O=C(Nc1ccccc1C(=O)N/N=C/c1ccco1)c1ccc(Cl)cc1 | 19% | ? | -18%
26 | O=C(CN1CCN(Cc2ccccc2Cl)C1=O)NCc1ccccc1Cl | 2% | nt | -6%
27 | CCOC(=O)c1ccccc1NC(=O)CSc1nc2ncccc2o1 | 0% | nt | -4%
28 | O=C(Nc1cccc(C(=O)N2CCCCC2)c1)c1nsc2ccccc12 | -3% | nt | -29%
29 | C=CCOc1ccc(/C=C/C(=O)OCC(=O)N2CCC(c3ccccc3)=N2)cc1 | -1% | 3% | nt
30 | CCOC(=O)[C@@H]1[C@H]2COc3cc(OC)ccc3[C@@H]2N2C(=O)N(c3ccc(F)cc3)C(=O)[C@@]12C | -3% | -7% | nt

item | Nrf2 inh | ClpP mod | Nrf2 ARE act
16 | 21µM* | ? | 3%
17 | ? | 54% | 0%
18 | 2.6µM* | -4% | 3%
19 | 16µM* | -2% | 6%
20 | 11% | 0% | 0%
21 | 4% | -2% | 3.5µM*
22 | ? | nt | 5µM*
23 | 3% | -18% | 2.8µM*
24 | 0% | 0% | 23%
25 | 2% | -2% | ?
26 | 4% | 0% | -1%
27 | 15% | 4% | 3%
28 | nt | 0% | 4%
29 | 21µM* | -20% | 1%
30 | 6% | 2% | -1%

# As entered above:
# CCOC(=O)[C@@H]1[C@H]2COc3cc(OC)ccc3[C@@H]2N2C(=O)N(c3ccc(F)cc3)C(=O)[C@@]12C in A549 tox → -3%
# CCOC(=O)c1ccccc1NC(=O)CSc1nc2ncccc2o1 in miR-21 reporter → -4%

# Next section.
item | Structure | A549 tox | p53 reactivation | miR-21 reporter
31 | Clc1ccc2oc(-c3ccccc3)nc2c1 | 0% | 19% | -52%
32 | Clc1ccc2oc(-c3cccnc3)nc2c1 | 4% | 14% | -41%
33 | Cc1ccc2nc(-c3cccnc3)oc2c1 | 1% | 29% | -42%
34 | CSc1ncc(Cl)c(C(=O)N(C)c2ccccc2)n1 | 12% | nt | -3%
35 | CCc1ccc(NC(=O)Cn2c(=O)n(Cc3ccc4c(c3)OCO4)c(=O)c3oc4ccccc4c32)cc1 | -1% | nt | 1%
36 | O=c1[nH]c(NNC(=S)NCc2ccccc2)nc2c1C1(CCCCC1)Cc1ccccc1-2 | 3% | 19% | -1%
37 | CCC1(CC)Cc2ccccc2-c2nc(NCCCO)[nH]c(=O)c21 | 1% | -1% | 2%
38 | O=c1[nH]cnc2c1C1(CCCC1)Cc1ccccc1-2 | 0% | -3% | 10%
39 | O=c1[nH]c(NCCCO)nc2c1C1(CCCC1)Cc1ccccc1-2 | -3% | 6% | 1%
40 | C=CCNC(=S)NNc1nc2c(c(=O)[nH]1)C1(CCCC1)Cc1ccccc1-2 | -2% | -7% | 7%
41 | C=CCN(C)CCCCCCOc1ccc(C(=O)c2ccc(Br)cc2)c(F)c1 | nt | nt | nt
42 | COc1ccc(NC(=O)/C(Cl)=C(/Cl)S(=O)Cc2ccc(Cl)cc2)cn1 (stereo not given) | 21µM* | -16% | ?
43 | COc1ccc(C(=O)NC(Nc2ccc(C)cc2)C(Cl)(Cl)Cl)cc1 (stereo not given) | ? | -9% | 11%
44 | COc1cccc(/C=N/NC(=O)CSc2ccccc2C)c1OC | -3% | 13% | -16%
45 | COc1cccc(/C=N/NC(=O)CSc2nnc(C)n2-c2ccccc2)c1OC | -9% | -1% | -4%

item | Nrf2 inh | ClpP mod | Nrf2 ARE act
31 | ? | -14% | ?
32 | ? | 25µM* | 9%
33 | ? | 1.4µM*! | 5%
34 | 8% | 1% | 7%
35 | -6% | -17% | -1%
36 | ? | 16µM* | 0%
37 | -12% | nt | 0%
38 | nt | 13µM* | 0%
39 | 3% | 14µM* | 0%
40 | 19% | -15% | 5%
41 | nt | 1% | nt
42 | ? | nt | -3%[9.22 µM]
43 | 21µM* | 1% | 4%
44 | -17% | -17% | 1%
45 | nt | 28µM* | 2%
